Experimental data from patent US8258305B2, “Dopamine transporter inhibitors for use in treatment of movement disorders and other CNS indications” (Prexa Pharmaceuticals, Inc., priority 2005, dated 2012).

System: Sprague-Dawley rats
Assay: 7-day multidose oral dosing toxicology study
Conditions: 7 days; for self mutilation (number of animals): n = 6, oral

For `CC1CCN(CC2(c3ccc(Cl)cc3)CCC2)CC1COc1ccc(C(F)(F)F)cc1` (stereo not drawn) [CNS-27,100], the observed symptoms (Sprague-Dawley rats (n = 6; 3M/3F), oral, 100 mg/kg/day) was “did not display any significant symptoms”, the “self mutilation (number of animals)” value (200 mg/kg/day) was 1 self mutilation and the “self mutilation (number of animals)” value (400 mg/kg/day) was 3 self mutilation.
